Assay outcomes (PubChem BioAssay)
TDP1 cell CPT: growth inhibition of DT40 Tdp1-/-;hTDP1 cells with camptothecin (screen for TDP1 inhibitors) | chicken DT40 Tdp1-/-;hTDP1 cells + 20 nM CPT, ATP luminescence, 48 h | Potency, µM (highest dose often 46.2 µM), most hits filed as inhibitors | hit rate 12% among 420,000 | AID 686979; note: nearly all actives have a fitted effect of over 55% in size
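Chicken DT40 Tdp1-/- cells stably complemented with human TDP1 were seeded at 400 cells/well in medium containing 20 nM camptothecin, exposed to pin-transferred compounds, and grown at 37 °C for at least 48 hr. Viability was read as ATP luminescence.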
miR-21 reporter: raises the signal of a miR-21 reporter; Potency, µM (doses to about 38.3 µM); HeLa miR-21 FLuc reporter, luciferase, 48 h; AID 2288; 340,000 tested, under 10 active; active = well fitted rising curve with a large enough effect; inconclusive = small, poorly fitted or top-dose-only effect; inactive = no such curve, though single readings can be large or run the other way;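 further: miR-21 action dims this reporter so a rising signal means less miR-21 action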
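Compounds were titrated across several concentrations (up to approximately 40 uM) and incubated 48 hours with HeLa miR-21-FLuc reporter cells (miR-21 target sequence downstream of FLuc, endogenous miR-21). Readout was firefly luciferase luminescence after lytic detection reagent.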
uPA surface inh: blocks generation of uPA at the cell surface; Potency, µM (series often up to 38.3 µM), usual class: inhibitors; cell surface uPA generation assay, qHTS; hit rate 0.31% among 330,000; active = well fitted inhibition curve with a large enough effect; inconclusive = small, poorly fitted or top-dose-only effect; inactive = no such curve, though single readings can be large or run the other way; tested in mouse RAW 264.7 cells; note: nearly all actives have a fitted effect of over 55% in size
TDP1 block: blocks human tyrosyl-DNA phosphodiesterase 1; recombinant TDP1, AlphaScreen DNA substrate cleavage; hit rate 0.28% among 350,000; AID 485290; Potency, µM (titrated, usually from 130 µM), actives largely listed as inhibitors; note: nearly all actives have a fitted effect of over 40% in size
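Here, a 5' biotin and 3' phosphotyrosine-FITC DNA oligonucleotide reports Tdp1 activity: intact substrate bridges AlphaScreen beads, while cleavage leaves a 3' phosphate and drops signal. All incubations at room temperature.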
DT40 TDP1 no CPT: qHTS for Inhibitors of human tyrosyl-DNA phosphodiesterase 1 (TDP1): qHTS in cells in absence of CPT; hit rate 15% among 420,000; Potency, µM (highest dose often 46.2 µM), hits mostly inhibitors; DT40 Tdp1-/- hTDP1 cells, no CPT, ATP luminescence, 48 h; AID 686978, 2013; note: nearly all actives have a fitted effect of over 55% in size
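No-CPT arm: Tdp1-/-;hTDP1 DT40 cells (400/well) plus compounds, incubated ≥48 hr at 37 °C. Readout CellTiter-Glo luminescence.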
Of the large screens only hits and unclear results are named; the others gave an inactive call. Only some compounds are listed: those with a hit (about 16% of all), similar ones and a draw of the others. Unless noted, calls come from the whole dose curve; as a rule, active = well fitted curve in the direction sought with a large enough effect; inconclusive = small, poorly fitted or top-dose-only effect, or another doubt; inactive = no such curve, though single readings can be large; an effect the other way counts as inactive or inconclusive.

O=C(Cn1c(=O)oc2ccccc21)Nc1nc(-c2ccccc2)cs1	none
Cc1ccc(NC(=O)CCl)c(C)c1	TDP1 cell CPT inconclusive, miR-21 reporter inconclusive, DT40 TDP1 no CPT 25.9µM (no result: uPA surface inh)
CC(C)(C)c1csc(NC(=O)Cn2c(=O)oc3ccccc32)n1	TDP1 cell CPT 16.4µM, DT40 TDP1 no CPT inconclusive
CCOc1ccccc1NC(=O)Cn1c(=O)oc2cc(Cl)ccc21	DT40 TDP1 no CPT 4.61µM (no result: TDP1 block)
CS(=O)(=O)c1ccc(Cl)c(NC(=O)CCl)c1	TDP1 cell CPT 5.8µM, miR-21 reporter inconclusive, DT40 TDP1 no CPT 10.3µM (no result: uPA surface inh)
Cc1ccc(NC(=O)NC2CCCCCCC2)c(C)c1	none
Cc1ccc(NC(=O)NC2CCCCC2)c(C)c1	TDP1 cell CPT 1.03µM, DT40 TDP1 no CPT 1.16µM
O=C(Cn1c(=O)oc2ccccc21)Nc1ccccc1C(F)(F)F	TDP1 cell CPT inconclusive, DT40 TDP1 no CPT 6.51µM (no result: TDP1 block)
Cc1ccc(NC(=O)Cn2c(=O)oc3ccccc32)c(C)c1	DT40 TDP1 no CPT 13µM (no result: TDP1 block)
Cc1ccc(NC(=O)Cn2c(=O)oc3ccccc32)cc1	none
Cc1cccc(NC(=O)Cn2c(=O)oc3ccccc32)c1C	TDP1 cell CPT inconclusive, DT40 TDP1 no CPT inconclusive (no result: TDP1 block)
Cc1ccccc1NC(=O)Cn1c(=O)oc2cc(Br)ccc21	TDP1 cell CPT inconclusive, DT40 TDP1 no CPT 13µM (no result: uPA surface inh)
Cc1ccc(C)c(NC(=O)Cc2nc(CCl)cs2)c1	TDP1 cell CPT 25.9µM, DT40 TDP1 no CPT 20.6µM
Cc1ccc(NC(=O)Cn2c(=O)oc3ccccc32)cc1C	none
Cc1ccccc1NC(=O)Cc1nc(CCl)cs1	TDP1 cell CPT inconclusive
Cc1ccccc1C(=O)NNc1ccc([N+](=O)[O-])cc1	none (no result: uPA surface inh)
COc1ccc(CN(CCC#N)CCC2(c3ccccc3)CC(C)N(C)CC2C)cc1OC (centres undefined)	none
COc1ccc(CNCCC2(Cc3ccccc3)CC(C)N(C)CC2C)cc1OC (centres undefined)	TDP1 cell CPT inconclusive, DT40 TDP1 no CPT 14.6µM
COc1ccc(NC(=O)C2CCN(S(=O)(=O)c3ccc4c(c3)CC(C)N4C(C)=O)CC2)cc1OC (centres undefined)	TDP1 cell CPT inconclusive, DT40 TDP1 no CPT inconclusive
CC(=O)N1c2ccc(S(=O)(=O)N3CCC(C(=O)NCCc4ccc(Cl)cc4)CC3)cc2CC1C (centres undefined)	TDP1 cell CPT 16.4µM, DT40 TDP1 no CPT 10.3µM
CC(=O)N1c2ccc(S(=O)(=O)N3CCCC3C(=O)NCc3ccc(Cl)cc3)cc2CC1C (centres undefined)	TDP1 cell CPT 20.6µM, DT40 TDP1 no CPT inconclusive (no result: TDP1 block)
COc1cc(OC)c(NC(=O)C2CCN(S(=O)(=O)c3ccc4c(c3)CC(C)N4C(C)=O)CC2)cc1Cl (centres undefined)	TDP1 cell CPT 20.6µM, DT40 TDP1 no CPT inconclusive
CC(=O)N1c2ccc(S(=O)(=O)N3CCC(C(=O)NCc4ccc(C)cc4)CC3)cc2CC1C (centres undefined)	TDP1 cell CPT inconclusive
CC(=O)N1c2ccc(S(=O)(=O)N3CCC(C(=O)NCc4ccc(Cl)cc4)CC3)cc2CC1C (centres undefined)	TDP1 cell CPT 18.4µM, DT40 TDP1 no CPT inconclusive
COc1cccc(C(=O)N2CCN(C3CCC(c4ccccc4)CC3)CC2)c1 (centres undefined)	TDP1 cell CPT inconclusive, DT40 TDP1 no CPT inconclusive
COc1cc(OC)c(NC(=O)N2CCc3cc(S(=O)(=O)N4CCC(C)CC4)ccc32)cc1Cl	TDP1 cell CPT 10.3µM, DT40 TDP1 no CPT 8.2µM (no result: uPA surface inh)
CC1Cc2cc(S(=O)(=O)N3CCC(C(=O)NCc4ccco4)CC3)ccc2N1C(=O)C1CCC1 (centres undefined)	TDP1 cell CPT inconclusive, DT40 TDP1 no CPT 23.1µM
Cc1ccc(CNC(=O)C2CCN(S(=O)(=O)c3ccc4c(c3)CC(C)N4C(=O)C3CC3)CC2)cc1 (centres undefined)	none
COc1ccc(S(=O)(=O)NCc2ccc3c(c2)CCN3C(=O)c2ccccc2)cc1OC	TDP1 cell CPT inconclusive, DT40 TDP1 no CPT inconclusive (no result: uPA surface inh)
Cc1ccc(CNS(=O)(=O)c2ccc3c(c2)CCN3S(C)(=O)=O)cc1	TDP1 cell CPT inconclusive, DT40 TDP1 no CPT inconclusive (no result: uPA surface inh)
CCc1ccc(S(=O)(=O)NCc2ccc3c(c2)CCN3C(=O)c2ccc(C)cc2)cc1	TDP1 cell CPT 7.31µM, DT40 TDP1 no CPT 8.2µM (no result: uPA surface inh)
